Each structure is given as a SMILES string. The entries are a selection whose mix differs from that of the whole data set. The source made the active and inactive calls. Calls follow the shape of the dose curve; as a rule, active = well fitted inhibition curve with a large enough effect; inconclusive = small, poorly fitted or top-dose-only effect; inactive = flat fitted curve, though single readings scatter.

The results in this text go back to PubChem BioAssay AID504842 (National Center for Advancing Translational Sciences (NCATS), 2011).
% is scaled to controls: 0 for no effect and ±100 for the full control effect.

The subject of the assay is Chaperonin Mm-Cpn (Methanococcus maripaludis). The assay can be described thus: Inhibitors of TCP-1 ring complex (TRiC) of Methanococcus maripaludis (MmCpn): qHTS. Also: nearly all actives have a fitted effect of over 80% in size. The settings on record: purified Mm-Cpn ATPase, ADP Transcreener TR-FRET; at 76.9 µM (top of the series). An excerpt: The eukaryotic chaperonin TRiC (for TCP-1 ring complex) is an essential and conserved chaperone required for the folding and activation of 10-15% of the proteins encoded by the human genome. […] The TRiC complex consist of two stacked 7-9 membered rings, each containing a central cavity. Substrates are folded within the cavity in an ATP-dependent manner. TRiC is a complex of eight different, essential proteins. As each of the genes encoding the eight subunits is essential for cell viability and no protocol has been developed to over-express this enzyme to high levels. That is why several groups studying the TRiC chaperonin have turned to the archaeal homolog of TRiC, Methanococcus maripaludis (Mm-CPN), and have used this enzyme as a model system for the study of the type II chaperonin family. Small molecule inhibitors of the Mm-CPN enzyme would be extremely useful to study the mechanism of chaperonin activity. Importantly, TRiC and Mm-CPN both require ATP hydrolysis for function. Furthermore, the ATP binding sites are highly conserved among these type II chaperonins. This provides us with an easy, well tested and straightforward assay to identify inhibitors of chaperonin activity. The Mm-CPN assay was developed in 1536-well plate format using the HTRF Transcreener ADP assay kit (Cisbio, Bedford, MA). This assay applied the time resolved fluorescence resonance energy transfer (TR-FRET) principle. ATP in the presence of Mm-CPN is converted to ADP + Pi. An antibody labeled with Eu3+-Cryptate specific and bound to ADP labeled with […] (d2) competes with the unlabeled ADP generated by Mm-CPN. The resulting TR-FRET signal is inversely proportional to the concentration of ADP in the sample. In this assay a reduction in TR-FRET signal is observed with ATP turnover. NIH Chemical Genomics Center [NCGC] NIH Molecular Libraries Probe Centers Network [MLPCN] MLPCN Grant: DA030554-01A1 Assay Submitter (PI): Judith Frydman, Stanford University
Purified Mm-CPN was supplied by the laboratory of Dr. Judith Frydman. Protein samples were stored at -80C as single use aliquots. Protein was thawed in ambient temperature water bath and placed on ice once thawed. Buffer was prepared fresh day of screen. The buffer composition below was used to prepare the working solution of the Mm-CPN protein and ATP substrate. The buffer is comprised of 30 mM TRIS pH 7.4, 100mM KCl, 5mM MgCl2, and 1mM DTT. A final concentration of 25nM Mm-CPN and 10uM ATP per well were used in the screen. Instructions according to the manufacturer were followed for the ADP Transcreener kit. Used 1536 well Greiner white, medium binding (MB), solid bottom plates. Plates were read on the PerkinElmer EnVision plate reader using Excitation = 320 nm and Emission = […], 665 nm. Protocol- 1.Dispense 1.5ul per well of working [Mm-CPN] = 50nM (or 75 ng / well) 2.Spin plate at 1000 rpm for 30 seconds 3.23nl of compound transferred per well 4.Incubate at 37degC for 10 minutes 5.Dispense 1.5ul per well of working [ATP] = 20uM 6.Incubate at 37degC for 30 minutes 7.Dispense 3ul per well of Anti-ADP Cryptate / ADP-d2 mix (prepared as instructed by Cisbio) 8.Incubate at ambient for 30 minutes 9.Read using EnVision
With `CC(C)=N/N=C(\N)N[N+](=O)[O-]`, the activity, negative = inhibition was inactive: -24.2%.

As for `COc1ccc(C2=NCC(CBr)S2)cc1` (centres undefined), the activity, negative = inhibition was inactive: -5.36%. The same measure for `CCc1nc2c(n1)c1c(non1O)c1c2no[n+]1[O-]`: inactive: -2.21%; for `O=[N+]([O-])c1cc([N+](=O)[O-])c(CCNc2ccccc2)c([N+](=O)[O-])c1`: inactive: -1.9%. The same measure for `Cc1ccc(NP(=O)(Oc2ccccc2)Oc2ccccc2)nc1`: inactive: 1.11%; for `O=[N+]([O-])c1cccc2n[nH]nc12`: inactive: -1.15%; for `CC(=O)N1C2C3N(C(C)=O)C1C1N(C(C)=O)C(C(N1C(C)=O)N3C(C)=O)N2C(C)=O`: inactive: -2.86%. Next, `CC(C)C(=O)NC(Sc1ccccc1)C(Cl)(Cl)Cl` (centres undefined): inactive: -0.585%; `O=P(Nc1nccs1)(c1ccccc1)c1ccccc1`: inactive: -0.582%; `c1nnnn1CCn1cnnn1`: inactive: -1.23%. Regarding `O=[As](O)(c1ccccc1)c1ccc(O)cc1`, the activity, negative = inhibition was inactive: 1.52%. The same measure for `O=[N+]([O-])c1ccc(O)c(/C=N/Nc2ccc([N+](=O)[O-])cc2[N+](=O)[O-])c1`: inactive: -0.859%; for `CC(=O)NC(SC(=S)N(C)C)C(Cl)(Cl)Cl` (centres undefined): inactive: -0.0282%. Next, `O=[N+]([O-])c1ncn(CCn2cnc([N+](=O)[O-])n2)n1`: inactive: -2.77%; `O=C(OC1CN2CCC1CC2)c1cccc(Cl)c1` (centres undefined): inactive: 1.78%.

For `Nc1ccc([As](=O)(O)c2ccc([N+](=O)[O-])cc2)cc1`, the activity, negative = inhibition was inactive: 2.12%. Next, `C(Cc1nn[nH]n1)Cc1nn[nH]n1`: inactive: -0.719%. Next, `O=P(Nc1ccccn1)(c1ccc(Br)cc1)c1ccc(Br)cc1`: inactive: 1.76%; `CN(C)C1(CNC(=O)c2ccc(Cl)c(S(N)(=O)=O)c2)CCCCC1`: inactive: 0.275%. Next, `C[C@H]1OP(=O)(Oc2ccccc2)[C@H](O)[C@H](O)[C@H]1N=[N+]=[N-]` (some centres undefined): inactive: 1.13%; `O=P(Nc1nc2ccccc2s1)(c1ccccc1)c1ccccc1`: inactive: -1.15%; `CCC(=O)N1C2C3N(C(=O)CC)C1C1N(C(=O)CC)C(C(N1C(=O)CC)N3C(=O)CC)N2C(=O)CC`: inactive: -0.419%.

Regarding `O=C(OC1CN2CCC1CC2)c1ccccc1` (centres undefined), the activity, negative = inhibition was inactive: -0.822%. Next, `CC(=O)NC(SC(=S)N(CC(C)C)CC(C)C)C(Cl)(Cl)Cl` (centres undefined): inactive: 0.233%; `Cc1ccc(OP(=O)(Nc2ccccn2)Oc2ccc(C)cc2)cc1`: inactive: -2.04%.

For `COC(=O)c1cc2c(s1)N=C(c1ccccc1)N(C)P2(=O)N1CCOCC1` (centres undefined), the activity, negative = inhibition is inactive: -0.422%. The same measure for `CN(C)C(=O)Oc1noc2ccccc12`: inactive: -3.64%; for `O=c1c2cc([N+](=O)[O-])ccc2[nH]c2c([N+](=O)[O-])cc([N+](=O)[O-])cc12`: inactive: -5.9%; for `Cc1ccccc1OP(=O)(Nc1ccccn1)Oc1ccccc1C`: inactive: -4.49%.

Turning to `CC(NC(=O)COC(=O)C(O)(c1ccccc1)c1ccccc1)c1ccccc1` (centres undefined), the activity, negative = inhibition was inactive: -0.232%. Next, `Cc1ccc(NP(=O)(Oc2cccc(C)c2)Oc2cccc(C)c2)nc1`: inactive: -0.601%. Take `CCOC(=O)NC(Sc1ccccc1)C(Cl)(Cl)Cl` (centres undefined): the activity, negative = inhibition was inactive: 0.522%.

Turning to `c1ccc(-c2nn[nH]n2)c(-c2nn[nH]n2)c1`, the activity, negative = inhibition is inactive: -2.3%.

As for `CCNC(=S)/N=C(\N)N[N+](=O)[O-]`, the activity, negative = inhibition was inactive: 0.84%. The same measure for `O=C(NC1CCS(=O)(=O)C1)NP(=S)(Oc1ccccc1)Oc1ccccc1` (centres undefined): inactive: 2.12%; for `C[C@@H]1C=CCP(=O)(Oc2ccccc2)O1` (some centres undefined): inactive: 0.771%.

Take `C[C@H]1OP(=O)(Oc2ccccc2)C[C@@H]2O[C@@H]21` (some centres undefined): the activity, negative = inhibition is inactive: -0.31%.

As for `Cc1ccccc1CN(C)C(=O)COC(=O)C(O)(c1ccccc1)c1ccccc1`, the activity, negative = inhibition is inactive: 0.769%. The same measure for `CC(=O)c1ccc(N2CC2c2ccncc2)cc1` (centres undefined): inactive: -1.41%. On to `CC(=O)Nc1ccc(Oc2c([N+](=O)[O-])cc([N+](=O)[O-])cc2[N+](=O)[O-])cc1`, for which the activity, negative = inhibition is inactive: 0.352%.

On to `CC(=O)Nc1ccc([As](=O)(O)O)c(O)c1`, for which the activity, negative = inhibition is inactive: 4.48%. Next, `CCOc1ccc(C2=NCC(CBr)S2)cc1` (centres undefined): inactive: -5.13%; `O=P1(Nc2nc3ccc(Cl)cc3s2)COc2ccccc2O1` (centres undefined): inactive: 0.511%. Next, `CC(C)(C)C(=O)NC(Sc1ccccc1)C(Cl)(Cl)Cl` (centres undefined): inactive: 0.314%.
